Literature values as cited in patent US20140329903A1, “TREATMENT OF NEURODEGENERATIVE DISEASES” (ACADIA PHARMACEUTICALS INC., priority 2011, published 2014).
Where two headings read alike, the source gives them in different places.

Tested on: NMU (N-nitroso-N-methylurea) induced mammary tumor carcinoma model
Conditions: cited from earlier work; for Effective in rat cancer model?: NDA #21055

C=C(c1ccc(C(=O)O)cc1)c1cc2c(cc1C)C(C)(C)CCC2(C)C [Bexarotene, bexarotene]
Effective anti-cancer dose (rats) (oral, Targretin NDA #21055): 60 mg/kg/day
Effective in rat cancer model? (p.o. 10 mg/kg/day): No
Effective in rat cancer model? (p.o. 30 mg/kg/day, Yes/no indicates partial efficacy): Yes/No
Effective in rat cancer model? (p.o. 100 mg/kg/day): Yes
